Values of other authors in US7041320B1 (priority 2002, dated 2006).

Test system: physically-dependent opioid abusers
Conditions: historical opioid users challenged with the same hydromorphone dose, no depot

SMILES: CN1CC[C@]23c4c5ccc(O)c4O[C@H]2C(=O)CC[C@H]3[C@H]1C5 [hydromorphone]
- mean peak response (SEM) on VAS "Do you feel any drug effect?": 37.1 (SEM=8.0)
